The results in this text go back to US20240368664A1, “LIVE YEAST BIOSENSORS AND METHODS OF USE THEREOF” (priority 2021, published 2024).

Amino acid sequences for entries named in this document (tags omitted). A change or cut given only in a name is not applied to a line headed by its entry.
UniProt D6VTK4: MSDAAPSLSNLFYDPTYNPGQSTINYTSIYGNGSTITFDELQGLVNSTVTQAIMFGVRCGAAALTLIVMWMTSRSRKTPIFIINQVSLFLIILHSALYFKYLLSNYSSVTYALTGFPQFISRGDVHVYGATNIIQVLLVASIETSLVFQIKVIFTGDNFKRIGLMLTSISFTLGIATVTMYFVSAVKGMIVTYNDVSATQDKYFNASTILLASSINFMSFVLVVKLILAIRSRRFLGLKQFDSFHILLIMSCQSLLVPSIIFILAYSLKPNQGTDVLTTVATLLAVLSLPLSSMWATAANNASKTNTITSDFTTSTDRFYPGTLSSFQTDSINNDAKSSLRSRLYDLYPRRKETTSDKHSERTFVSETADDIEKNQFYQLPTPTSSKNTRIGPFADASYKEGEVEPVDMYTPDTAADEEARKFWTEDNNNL

No end group written: not given here.

One assay deals with CaSte2. As to conditions: CaSte2 (yTC384), no protease, Hill function best-fit ± standard error; for LogEC50: log of EC50; for Bottom / Top: ymTurquoise2 fluorescence.
Assay [1] relates to CaSte2 with protease CaBar1. As to conditions: CaSte2 + CaBar1 (yBB02), Hill function best-fit ± standard error; for LogEC50: log of apparent EC50; for Bottom / Top: ymTurquoise2 fluorescence.
For a further assay, the target named is ScSte2 (Saccharomyces cerevisiae, UniProt D6VTK4). The assay is described as follows: ScSte2 biosensor dose-response, ymTurquoise2 readout, no protease (incl. ScPep alanine scan, yTC391). Type of assay: cell-based. As to conditions: log of EC50, Hill function best-fit ± standard error.

As for AFRLTNFGYFEPG [CaPep1A], in the assay on CaSte2, the LogEC50 is recorded as −7.1 ± 0.1 M, the Bottom is 14 ± 7 A.U and the Top is reported as 460 ± 9 A.U. Also, in assay [1], the LogEC50 is reported as −6.2 ± 0.1 M, the Bottom is given as 4.5 ± 14.4 A.U and the Top worked out at 410 ± 10 A.U.

AHWLQLKPGQPMY [ScPep1A]: the LogEC50 on ScSte2 is −7.4 ± 0.1 M.

Turning to GARLTNFGYFEPA [CaPep2A13A], in the assay on CaSte2, the LogEC50 is on record as −7.0 ± 0.1 M, the Bottom worked out at 1.5 ± 6.2 A.U and the Top came out at 790 ± 10 A.U. In assay [1], the LogEC50 was −6.5 ± 0.1 M, the Bottom is given as −2.4 ± 22.85 A.U and the Top was 680 ± 20 A.U.

As to GARLTNFGYFEPG [CaPep2A], in the assay with CaSte2, the LogEC50 is recorded as −7.4 ± 0.1 M, the Bottom is 0.97 ± 10 A.U and the Top is reported as 460 ± 20 A.U.

For the sequence GFALTNFGYFEPG [CaPep3A], in the assay on CaSte2, the LogEC50 was −6.9 ± 0.1 M, the Bottom came to 5.7 ± 3.4 A.U and the Top is 460 ± 10 A.U. Also, in assay [1], the LogEC50 is −6.1 ± 0.1 M, the Bottom came to 14 ± 11 A.U and the Top is recorded as 460 ± 10 A.U.

As to GFRATNFGYFEPG [CaPep4A], in the assay with CaSte2, the LogEC50 is reported as −6.5 ± 0.1 M, the Bottom came out at 3.4 ± 4.9 A.U and the Top was determined as 460 ± 10 A.U. Moreover, in assay [1], the LogEC50 is given as −6.1 ± 0.1 M, the Bottom was 11 ± 8 A.U and the Top amounted to 410 ± 8.4 A.U.

On to GFRLANFGYFEPG [CaPep5A], for which, in the assay with CaSte2, the LogEC50 is recorded as −5.2 ± 0.1 M, the Bottom was 3.8 ± 0.3 A.U and the Top was 15 ± 0.5 A.U. In addition, in assay [1], the LogEC50 is −4.9 ± 0.1 M, the Bottom came out at 6.4 ± 0.2 A.U and the Top is 13 ± 1 A.U.

In the assay with CaSte2, GFRLTAFGYFEPG [CaPep6A] yielded a LogEC50 of −6.2 ± 0.1 M, a Bottom of 4.7 ± 2.8 A.U and a Top of 570 ± 10 A.U. In addition, in assay [1], the LogEC50 is given as −5.9 ± 0.1 M, the Bottom came out at 0.83 ± 6.2 A.U and the Top stood at 450 ± 10 A.U.

In the case of GFRLTNAGYFEPG [7A], in the assay with CaSte2, the LogEC50 is reported as −5.5 ± 0.1 M, the Bottom amounted to 3.4 ± 0.2 A.U and the Top is 34 ± 0.4 A.U. For the same sequence, in assay [1], the LogEC50 is −5.6 ± 0.1 M, the Bottom was 5.1 ± 0.2 A.U and the Top was 17 ± 1 A.U.

In the assay on CaSte2, GFRLTNFAYFEPG [CaPep8A] gave a LogEC50 of −6.4 ± 0.1 M, a Bottom of 15.3 ± 21 A.U and a Top of 640 ± 20 A.U. In addition, in assay [1], the LogEC50 is −5.5 ± 0.1 M, the Bottom was found to be 13 ± 8 A.U and the Top worked out at 460 ± 10 A.U.

In the assay on CaSte2, GFRLTNFGAAEPG [9A10A] came in with a LogEC50 of −4.7 ± 0.1 M, a Bottom of 2.9 ± 2.2 A.U and a Top of 570 ± 10 A.U. In assay [1], the LogEC50 is on record as −4.6 ± 0.1 M, the Bottom is given as 3.5 ± 3.8 A.U and the Top amounted to 510 ± 20 A.U.

Regarding GFRLTNFGAFEPG [CaPep9A], in the assay on CaSte2, the LogEC50 is −6.6 ± 0.1 M, the Bottom was found to be 17 ± 6 A.U and the Top is 700 ± 10 A.U. Moreover, in assay [1], the LogEC50 was −5.9 ± 0.1 M, the Bottom amounted to 10 ± 7 A.U and the Top came out at 480 ± 10 A.U.

In the assay on CaSte2, GFRLTNFGYAEPG [CaPep10A] returned a LogEC50 of −4.6 ± 0.1 M, a Bottom of 5.6 ± 1.9 A.U and a Top of 180 ± 10 A.U. Moreover, in assay [1], the LogEC50 is −4.2 ± 0.1 M, the Bottom is 6.0 ± 0.4 A.U and the Top amounted to 98 ± 1 A.U.

In the assay with CaSte2, GFRLTNFGYFEAA [12A13A] registered a LogEC50 of −4.8 ± 0.1 M, a Bottom of 4.9 ± 0.5 A.U and a Top of 170 ± 10 A.U. In addition, in assay [1], the LogEC50 is −4.5 ± 0.1 M and the Bottom is given as 5.6 ± 0.5 A.U.

In the assay with CaSte2, GFRLTNFGYFEAG [12A] yielded a LogEC50 of −5.3 ± 0.1 M, a Bottom of −1.7 ± 3.4 A.U and a Top of 580 ± 10 A.U. In addition, in assay [1], the LogEC50 is listed as −5.0 ± 0.1 M, the Bottom stood at 2.2 ± 4.8 A.U and the Top turned out to be 540 ± 10 A.U.

On ScSte2, WAWLQLKPGQPMY [ScPep2A] yielded a LogEC50 of −7.1 ± 0.1 M.

In turn, WHALQLKPGQPMY [ScPep3A] yielded a LogEC50 on ScSte2 of −7.2 ± 0.1 M.

In turn, WHWLALKPGQPMY [ScPep5A] registered a LogEC50 at ScSte2 of −7.3 ± 0.1 M.

For the sequence WHWLQAKPGQPMY [ScPep6A], the LogEC50 on ScSte2 was −7.1 ± 0.1 M.

WHWLQLAPGQPMY [ScPep7A]: the LogEC50 on ScSte2 was −6.9 ± 0.1 M.

In turn, WHWLQLKAGQPMY [ScPep8A] came in with a LogEC50 at ScSte2 of −7.1 ± 0.1 M.

On ScSte2, WHWLQLKPAQPMY [ScPep9A] yielded a LogEC50 of −6.8 ± 0.1 M.

WHWLQLKPGAPMY [ScPep10A] yielded a LogEC50 on ScSte2 of −6.9 ± 0.1 M.

Regarding WHWLQLKPGQAMY [ScPep11A], the LogEC50 at ScSte2 is recorded as −7.3 ± 0.1 M.

At ScSte2, WHWLQLKPGQPMA [ScPep13A] registered a LogEC50 of −7.2 ± 0.1 M.
